Patent US10112926B2 (priority 2014, dated 2018)
Where a name gives a salt, the structure may show the parent alone.

By UniProt entry, the sequences of proteins in these tests, tags left out. Where a name states a change or a piece, a line headed by the entry shows the natural chain unless it says otherwise.
UniProt P42336, whole entry, looked up: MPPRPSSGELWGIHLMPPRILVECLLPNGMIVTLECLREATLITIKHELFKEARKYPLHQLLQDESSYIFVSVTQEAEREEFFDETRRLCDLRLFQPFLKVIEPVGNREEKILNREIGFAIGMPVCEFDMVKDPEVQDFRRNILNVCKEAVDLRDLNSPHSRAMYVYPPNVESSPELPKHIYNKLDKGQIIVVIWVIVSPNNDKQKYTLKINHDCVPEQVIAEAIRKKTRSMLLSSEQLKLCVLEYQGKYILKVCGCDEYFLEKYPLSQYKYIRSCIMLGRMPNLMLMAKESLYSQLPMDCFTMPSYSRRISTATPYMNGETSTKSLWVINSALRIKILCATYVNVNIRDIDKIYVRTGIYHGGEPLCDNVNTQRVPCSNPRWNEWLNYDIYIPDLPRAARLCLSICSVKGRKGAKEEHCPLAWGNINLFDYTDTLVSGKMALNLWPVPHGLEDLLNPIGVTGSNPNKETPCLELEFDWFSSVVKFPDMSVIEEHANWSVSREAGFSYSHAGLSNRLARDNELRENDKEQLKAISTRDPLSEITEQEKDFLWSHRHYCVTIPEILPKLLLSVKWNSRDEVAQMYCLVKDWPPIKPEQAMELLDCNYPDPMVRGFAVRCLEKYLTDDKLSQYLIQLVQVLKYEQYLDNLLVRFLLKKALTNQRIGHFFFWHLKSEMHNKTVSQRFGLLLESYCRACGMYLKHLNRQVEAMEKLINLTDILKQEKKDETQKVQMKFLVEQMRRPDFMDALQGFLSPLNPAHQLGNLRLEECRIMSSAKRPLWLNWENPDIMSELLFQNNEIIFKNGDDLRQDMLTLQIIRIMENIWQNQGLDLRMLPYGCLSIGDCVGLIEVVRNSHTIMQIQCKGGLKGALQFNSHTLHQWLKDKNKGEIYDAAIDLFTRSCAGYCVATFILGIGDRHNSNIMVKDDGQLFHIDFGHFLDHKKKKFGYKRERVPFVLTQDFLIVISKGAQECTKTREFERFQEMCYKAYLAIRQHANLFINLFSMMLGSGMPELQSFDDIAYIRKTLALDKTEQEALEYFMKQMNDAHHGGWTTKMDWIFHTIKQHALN
UniProt P42338: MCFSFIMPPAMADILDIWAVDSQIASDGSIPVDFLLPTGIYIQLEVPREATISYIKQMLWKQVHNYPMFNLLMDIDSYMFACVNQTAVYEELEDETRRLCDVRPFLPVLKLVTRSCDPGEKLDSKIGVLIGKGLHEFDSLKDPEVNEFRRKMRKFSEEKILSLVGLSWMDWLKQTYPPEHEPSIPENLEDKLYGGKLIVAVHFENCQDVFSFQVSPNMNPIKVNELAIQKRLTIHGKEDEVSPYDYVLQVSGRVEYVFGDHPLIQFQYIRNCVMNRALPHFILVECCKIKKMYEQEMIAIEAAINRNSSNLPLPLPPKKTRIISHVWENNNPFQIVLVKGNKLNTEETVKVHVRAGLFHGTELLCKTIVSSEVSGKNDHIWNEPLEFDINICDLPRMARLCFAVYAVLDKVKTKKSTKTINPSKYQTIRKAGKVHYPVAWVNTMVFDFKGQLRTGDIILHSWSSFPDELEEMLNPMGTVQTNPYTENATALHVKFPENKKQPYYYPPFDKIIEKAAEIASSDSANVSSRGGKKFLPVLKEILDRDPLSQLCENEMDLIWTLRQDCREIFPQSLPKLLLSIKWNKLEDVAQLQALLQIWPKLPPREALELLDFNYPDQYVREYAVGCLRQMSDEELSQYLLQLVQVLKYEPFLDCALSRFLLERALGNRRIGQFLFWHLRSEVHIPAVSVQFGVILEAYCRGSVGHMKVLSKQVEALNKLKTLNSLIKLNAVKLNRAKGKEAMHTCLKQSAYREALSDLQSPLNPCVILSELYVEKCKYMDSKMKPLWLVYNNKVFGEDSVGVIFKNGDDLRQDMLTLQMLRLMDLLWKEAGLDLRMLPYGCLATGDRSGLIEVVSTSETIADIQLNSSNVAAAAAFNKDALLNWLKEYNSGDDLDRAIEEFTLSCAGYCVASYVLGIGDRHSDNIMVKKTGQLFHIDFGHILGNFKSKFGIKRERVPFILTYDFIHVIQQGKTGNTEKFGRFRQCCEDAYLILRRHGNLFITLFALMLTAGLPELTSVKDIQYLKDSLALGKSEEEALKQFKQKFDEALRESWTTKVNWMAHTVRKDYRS

Experiments:
PI 3-kinase alpha = PI 3-kinase alpha (Homo sapiens (Human), UniProt P42336); conditions: read-out: Assay A PI3Kα IC50
PI 3-kinase beta = PI 3-kinase beta (Homo sapiens (Human), UniProt P42338); conditions: read-out: Assay B PI3Kβ IC50
[1] = target: PI 3-kinase alpha (Rat-1 pBABEpuro Myr-HA-hp110 alpha cells) (Homo sapiens (Human), UniProt P42336); test: cell-based; conditions: Assay H PI3Kα IC50
[2] = target: PI 3-kinase beta (Rat-1 pBABEpuro Myr-HA-hp110 beta cells) (Homo sapiens (Human), UniProt P42338); test: cell-based; conditions: Assay I PI3Kβ IC50

Q: Which results are given for `Cc1ncc(-c2cc(-c3cc(S(=O)(=O)NCC4(CO)COC4)ccc3C)cnc2N)s1` [Example 68, 3-(6-Amino-5-(2-methylthiazol-5-yl)pyridin-3-yl)-N-((3-(hydroxymethyl)oxetan-3-yl)methyl)-4-methylbenzenesulfonamide]?
A: IC50 (PI 3-kinase alpha): 500 nM; IC50 (PI 3-kinase beta): 2800 nM; IC50 [1]: > 10000 nM; IC50 [2]: > 10000 nM

Q: Which IC50 (PI 3-kinase alpha) does the source give for `Cc1noc(-c2cc(-c3cc(S(=O)(=O)NCC(C)(C)O)c(F)cc3C)cnc2N)n1` [Example 85, 5-(6-Amino-5-(3-methyl-1,2,4-oxadiazol-5-yl)pyridin-3-yl)-2-fluoro-N-(2-hydroxy-2-methylpropyl)-4-methylbenzenesulfonamide] here?
A: 300 nM

Q: What about the IC50 (PI 3-kinase beta) of the same molecule?
A: 1300 nM

Q: And the IC50 [1]?
A: > 10000 nM

Q: And the IC50 [2]?
A: 2980 nM

Q: `Cc1noc(-c2cc(-c3cc(S(N)(=O)=O)ccc3C)cnc2N)n1` [Example 75, 3-(6-Amino-5-(3-methyl-1,2,4-oxadiazol-5-yl)pyridin-3-yl)-4-methylbenzenesulfonamide] was tested. Which IC50 (PI 3-kinase alpha) did it give?
A: 660 nM

Q: What about the IC50 (PI 3-kinase beta) of the same molecule?
A: > 10000 nM

Q: What about the IC50 [1] of the same molecule?
A: 7860 nM

Q: And the IC50 [2]?
A: 850 nM

Q: Which IC50 (PI 3-kinase alpha) does the source give for `Cc1noc(-c2cc(-c3cc(S(=O)(=O)NCC4(O)CC4)ccc3C)cnc2N)n1` [Example 37.19, 3-(6-Amino-5-(3-methyl-1,2,4-oxadiazol-5-yl)pyridin-3-yl)-N-((1-hydroxycyclopropyl)methyl)-4-methylbenzenesulfonamide] here?
A: 540 nM

Q: What about the IC50 (PI 3-kinase beta) of the same molecule?
A: 4900 nM

Q: What about the IC50 [1] of the same molecule?
A: 7970 nM

Q: And the IC50 [2]?
A: > 10000 nM

Q: For `COC1(C)CN(S(=O)(=O)c2ccc(C)c(-c3cnc(N)c(-c4cc(C)no4)c3)c2)C1` [Example 37.20, 5-(5-((3-Methoxy-3-methylazetidin-yl)sulfonyl)-2-methylphenyl)-3-(3-methylisoxazol-5-yl)pyridin-2-amine], which IC50 (PI 3-kinase alpha) is on record?
A: 1800 nM

Q: And the IC50 (PI 3-kinase beta)?
A: 9000 nM

Q: What about the IC50 [1] of the same molecule?
A: 9320 nM

Q: What about the IC50 [2] of the same molecule?
A: > 10000 nM

Q: Which results are given for `CCCONS(=O)(=O)c1ccc(C)c(-c2cnc(N)c(-c3nc(C)no3)c2)c1` [Example 44, 3-(6-Amino-5-(3-methyl-1,2,4-oxadiazol-5-yl)pyridin-3-yl)-4-methyl-N-propoxybenzenesulfonamide]?
A: IC50 (PI 3-kinase alpha): 50 nM; IC50 (PI 3-kinase beta): 1600 nM; IC50 [1]: 300 nM; IC50 [2]: > 10000 nM

Q: Which IC50 (PI 3-kinase alpha) does the source give for `Cc1cc(-c2cc(-c3cc(S(=O)(=O)NCC4(C)COC4)ccc3C)cnc2N)on1` [Example 17, 3-[6-Amino-5-(3-methyl-isoxazol-5-yl)-pyridin-3-yl]-4-methyl-N-(3-methyl-oxetan-3-ylmethyl)-benzenesulfonamide hydrochloride] here?
A: 300 nM

Q: And the IC50 (PI 3-kinase beta)?
A: 1400 nM

Q: What about the IC50 [1] of the same molecule?
A: 3310 nM

Q: And the IC50 [2]?
A: > 10000 nM

Q: `Cc1cc(-c2cc(-c3cc(S(=O)(=O)NCC4(CO)CCCC4)ccc3C)cnc2N)on1` [Example 37.23, 3-(6-Amino-5-(3-methylisoxazol-5-yl)pyridin-3-yl)-N-((1-(hydroxymethyl)cyclopentyl)methyl)-4-methylbenzenesulfonamide] was tested. Which IC50 (PI 3-kinase alpha) did it give?
A: 130 nM

Q: What about the IC50 (PI 3-kinase beta) of the same molecule?
A: 2200 nM

Q: And the IC50 [1]?
A: 2910 nM

Q: What about the IC50 [2] of the same molecule?
A: > 10000 nM

Q: Which IC50 (PI 3-kinase alpha) does the source give for `Cc1ccc(S(=O)(=O)NCC(C)(C)O)cc1-c1cnc(N)c(-c2cn(C)nn2)c1` [Example 63, 3-(6-Amino-5-(1-methyl-1H-1,2,3-triazol-4-yl)pyridin-3-yl)-N-(2-hydroxy-2-methylpropyl)-4-methylbenzenesulfonamide hydrochloride] here?
A: 2200 nM

Q: And the IC50 (PI 3-kinase beta)?
A: 5100 nM

Q: What about the IC50 [1] of the same molecule?
A: > 3000 nM

Q: What about the IC50 [2] of the same molecule?
A: > 10000 nM

Q: What does the source list for `Cc1noc(-c2cc(-c3cc(S(=O)(=O)N[C@H]4C[C@@H](O)C4)ccc3C)cnc2N)n1` [Example 5.5a, 3-(6-Amino-5-(3-methyl-1,2,4-oxadiazol-5-yl)pyridin-3-yl)-N-((1s,3s)-3-hydroxycyclobutyl)-4-methylbenzenesulfonamide]?
A: IC50 (PI 3-kinase alpha): 760 nM; IC50 (PI 3-kinase beta): 2900 nM; IC50 [1]: > 10000 nM; IC50 [2]: 2180 nM

Q: What does the source list for `Cc1cc(-c2cc(-c3cc(S(=O)(=O)NC[C@H]4CCOC4)ccc3C)cnc2N)on1` [Example 4.7, (R)-3-(6-Amino-5-(3-methylisoxazol-5-yl)pyridin-3-yl)-4-methyl-N-((tetra hydrofuran-3-yl)methyl)benzene-sulfonamide hydrochloride]?
A: IC50 (PI 3-kinase alpha): 300 nM; IC50 (PI 3-kinase beta): 4700 nM; IC50 [1]: 6400 nM; IC50 [2]: > 3000 nM

Q: For `Cc1ccc(S(=O)(=O)NCC(C)(C)O)cc1-c1cnc(N)c(-c2ccn(C)c2)c1` [Example 58, 3-(6-Amino-5-(1-methyl-1H-pyrrol-3-yl)pyridin-3-yl)-N-(2-hydroxy-2-methylpropyl)-4-methylbenzenesulfonamide hydrochloride], which IC50 (PI 3-kinase alpha) is on record?
A: 1300 nM

Q: What about the IC50 (PI 3-kinase beta) of the same molecule?
A: > 10000 nM

Q: And the IC50 [1]?
A: > 10000 nM

Q: What about the IC50 [2] of the same molecule?
A: > 10000 nM

Q: For `CCc1cc(-c2cc(-c3cc(S(=O)(=O)NCC(C)(C)O)ccc3C)cnc2N)on1` [Example 4.6, 3-(6-Amino-5-(3-ethylisoxazol-5-yl)pyridin-3-yl)-N-(2-hydroxy-2-methylpropyl)-4-methyl-benzenesulfonamide hydrochloride], which IC50 (PI 3-kinase alpha) is on record?
A: 520 nM

Q: What about the IC50 (PI 3-kinase beta) of the same molecule?
A: 4100 nM

Q: What about the IC50 [1] of the same molecule?
A: 6230 nM

Q: What about the IC50 [2] of the same molecule?
A: > 3000 nM

Q: For `Cc1cnc(-c2cc(-c3cc(S(=O)(=O)N[C@H]4CC[C@H](O)CC4)ccc3C)cnc2N)o1` [Example 5.2, trans 3-(6-Amino-5-(5-methyloxazol-2-yl)pyridin-3-yl)-N-(4-hydroxycyclohexyl)-4-methylbenzene sulfonamide hydrochloride], which IC50 (PI 3-kinase alpha) is on record?
A: 190 nM

Q: And the IC50 (PI 3-kinase beta)?
A: 1300 nM

Q: And the IC50 [1]?
A: 630 nM

Q: What about the IC50 [2] of the same molecule?
A: > 3000 nM

Q: What does the source list for `Cc1cccc(NS(=O)(=O)c2ccc(C)c(-c3cnc(N)c(-c4nc(C)no4)c3)c2)n1` [Example 72, 3-(6-Amino-5-(3-methyl-1,2,4-oxadiazol-5-yl)pyridin-3-yl)-4-methyl-N-(6-methylpyridin-2-yl)benzenesulfonamide]?
A: IC50 (PI 3-kinase alpha): 1200 nM; IC50 (PI 3-kinase beta): 1300 nM; IC50 [1]: 5200 nM; IC50 [2]: 1780 nM

Q: For `Cc1noc(-c2cc(-c3cc(S(=O)(=O)NC[C@H]4CCCO4)ccc3C)cnc2N)n1` [Example 37.5, (R)-3-(6-Amino-5-(3-methyl-1,2,4-oxadiazol-5-yl)pyridin-3-yl)-4-methyl-N-((tetrahydrofuran-2-yl)methyl)benzenesulfonamide], which IC50 (PI 3-kinase alpha) is on record?
A: 160 nM

Q: What about the IC50 (PI 3-kinase beta) of the same molecule?
A: 5300 nM

Q: And the IC50 [1]?
A: 1880 nM

Q: What about the IC50 [2] of the same molecule?
A: > 3000 nM

Q: Which results are given for `Cc1ncc(-c2cc(-c3cc(S(=O)(=O)NCC(C)(C)O)ccc3C)cnc2N)o1` [Example 6, 3-(6-Amino-5-(2-methyloxazol-5-yl)pyridin-3-yl)-N-(2-hydroxy-2-methylpropyl)-4-methylbenzenesulfonamide]?
A: IC50 (PI 3-kinase alpha): 400 nM; IC50 (PI 3-kinase beta): 2300 nM; IC50 [1]: 7840 nM; IC50 [2]: 4670 nM

Q: `Cc1ccc(S(=O)(=O)NCCC(C)(C)O)cc1-c1cnc(N)c(-c2nc(CC(F)(F)F)no2)c1` [Example 79, 3-(6-Amino-5-(3-(2,2,2-trifluoroethyl)-1,2,4-oxadiazol-5-yl)pyridin-3-yl)-N-(3-hydroxy-3-methylbutyl)-4-methylbenzenesulfonamide] was tested. Which IC50 (PI 3-kinase alpha) did it give?
A: 130 nM

Q: And the IC50 (PI 3-kinase beta)?
A: 5400 nM

Q: And the IC50 [1]?
A: 340 nM

Q: What about the IC50 [2] of the same molecule?
A: > 10000 nM

Q: For `Cc1noc(-c2cc(-c3cc(S(=O)(=O)NCC4CCCO4)ccc3C)cnc2N)n1` (centres unmarked) [Example 57, 3-(6-Amino-5-(3-methyl-1,2,4-oxadiazol-5-yl)pyridin-3-yl)-4-methyl-N-((tetrahydrofuran-2-yl)methyl)benzenesulfonamide], which IC50 (PI 3-kinase alpha) is on record?
A: 1700 nM

Q: What about the IC50 (PI 3-kinase beta) of the same molecule?
A: > 10000 nM

Q: And the IC50 [1]?
A: 3230 nM

Q: What about the IC50 [2] of the same molecule?
A: 8720 nM

Q: Which IC50 (PI 3-kinase alpha) does the source give for `Cc1ncc(-c2cc(-c3cc(S(=O)(=O)NOCC(C)(C)O)ccc3C)cnc2N)o1` [Example 107, 3-(6-amino-5-(2-methyloxazol-5-yl)pyridin-3-yl)-N-(2-hydroxy-2-methylpropoxy)-4-methylbenzenesulfonamide hydrochloride] here?
A: 50 nM

Q: And the IC50 (PI 3-kinase beta)?
A: 460 nM

Q: What about the IC50 [1] of the same molecule?
A: 750 nM

Q: And the IC50 [2]?
A: 3360 nM

Q: With `Cc1noc(-c2cc(-c3cc(S(=O)(=O)NCCC(F)(F)F)ccc3C)cnc2N)n1` [Example 48, 3-(6-Amino-5-(3-methyl-1,2,4-oxadiazol-5-yl)pyridin-3-yl)-4-methyl-N-(3,3,3-trifluoropropyl)benzenesulfonamide] as the molecule, how does the IC50 (PI 3-kinase alpha) read?
A: 300 nM

Q: What about the IC50 (PI 3-kinase beta) of the same molecule?
A: 5100 nM

Q: What about the IC50 [1] of the same molecule?
A: > 10000 nM

Q: And the IC50 [2]?
A: > 10000 nM

Q: For `Cc1noc(-c2cc(-c3cc(S(=O)(=O)N4CC(CO)C4)ccc3C)cnc2N)n1` [Example 37.39, (S)-((3-(6-Amino-5-(3-methyl-1,2,4-oxadiazol-5-yl)pyridin-3-yl)-4-methylphenyl)sulfonyl)azetidin-3-yl)methanol], which IC50 (PI 3-kinase alpha) is on record?
A: 1800 nM

Q: What about the IC50 (PI 3-kinase beta) of the same molecule?
A: 3300 nM

Q: And the IC50 [1]?
A: > 10000 nM

Q: What about the IC50 [2] of the same molecule?
A: > 10000 nM

Q: Which IC50 (PI 3-kinase alpha) does the source give for `Cc1ccc(S(=O)(=O)NCCC(C)(C)O)cc1-c1cnc(N)c(-c2ccncc2)c1` [Example 18, 3-(2-Amino-[3,4′]bipyridinyl-5-yl)-N-(3-hydroxy-3-methyl-butyl)-4-methyl-benzenesulfonamide] here?
A: 90 nM

Q: And the IC50 (PI 3-kinase beta)?
A: 3840 nM

Q: And the IC50 [1]?
A: 2030 nM

Q: What about the IC50 [2] of the same molecule?
A: > 10000 nM

Q: Which IC50 (PI 3-kinase alpha) does the source give for `Cc1noc(-c2cc(-c3cc(S(=O)(=O)NO[C@H]4C[C@H](O)C4)ccc3C)cnc2N)n1` [Example 55, trans-3-(6-Amino-5-(3-methyl-1,2,4-oxadiazol-5-yl)pyridin-3-yl)-N-(3-hydroxycyclobutoxy)-4-methylbenzenesulfonamide] here?
A: 90 nM

Q: And the IC50 (PI 3-kinase beta)?
A: 1200 nM

Q: And the IC50 [1]?
A: 320 nM

Q: And the IC50 [2]?
A: 410 nM

Q: For `Cc1ncc(-c2cc(-c3cc(S(=O)(=O)NCC4(CO)COC4)ccc3C)cnc2N)o1` [Example 67, 3-(6-Amino-5-(2-methyloxazol-5-yl)pyridin-3-yl)-N-((3-(hydroxymethyl)oxetan-3-yl)methyl)-4-methylbenzenesulfonamide], which IC50 (PI 3-kinase alpha) is on record?
A: 220 nM

Q: What about the IC50 (PI 3-kinase beta) of the same molecule?
A: 2300 nM

Q: And the IC50 [1]?
A: > 10000 nM

Q: And the IC50 [2]?
A: > 10000 nM

Q: Which results are given for `Cc1ncc(-c2cc(-c3cc(S(=O)(=O)N[C@H]4CC[C@H](O)CC4)ccc3C)cnc2N)s1` [Example 97, 3-(6-amino-5-(2-methylthiazol-5-yl)pyridin-3-yl)-N-((1r,4r)-4-hydroxycyclohexyl)-4-methylbenzenesulfonamide]?
A: IC50 (PI 3-kinase alpha): 160 nM; IC50 (PI 3-kinase beta): 1100 nM; IC50 [1]: 2840 nM; IC50 [2]: > 10000 nM
